In patent US20070231828A1 (published 2007):
Like-named read-outs stand apart in the source and are kept apart here.

Experiments:
[1] = tested on: 22RV1 cells overexpressing GLI; settings: over-expression of GLI
[2] = tested on: Hh-responsive GLI-luciferase reporter in human prostate cancer cells; test: Gli-luciferase reporter assay; assay type: cell-based; settings: 48 hours incubation, normalized to Renilla luciferase
[3] = tested on: 22RV1 xenograft tumors; settings: by the ninth day of treatment
[4] = tested on: 22RV1-GLI cells; settings: stable overexpression of GLI
[5] = tested on: xenograft tumors from 22RV1 cells overexpressing GLI; settings: 22RV1 overexpressing GLI; 50 mg/kg/day
[6] = tested on: AT6.3 subcutaneous tumors
[7] = tested on: PC3 xenograft tumors; settings: for tumor growth: by the ninth day of treatment

How did the anti-proliferative effect [1] turn out when `CC1=C2C[C@H]3[C@@H](CC=C4C[C@@H](O)CC[C@@]43C)[C@@H]2CC[C@]12O[C@@H]1C[C@H](C)CN[C@H]1[C@H]2C` [cyclopamine] was run?
The anti-proliferative effect was “bypass of cyclopamine blockade with over-expression of GLI”.

And the “Hh-responsive GLI-luciferase reporter activity” value [2]?
Its value is “fully suppressible”.

And the tumor growth ([3]; 10 mg/kg daily s.c.)?
Its tumor growth is “suppression of tumor growth”.

And the tumor growth ([3]; 50 mg/kg daily s.c.)?
Its tumor growth is “regression of tumors”.

What about the “Hh-responsive GLI-luciferase reporter activity” value [4] of the same compound?
Its value is “bypassed by stable overexpression of GLI”.

What about the tumor growth [5] of the same compound?
The tumor growth was “not affected”.

What about the “rate of growth of primary subcutaneous tumors” value ([6]; i.p. 10 mg/kg/day) of the same compound?
The value was 9.2 %/day.

And the “rate of growth of primary subcutaneous tumors” value ([6]; i.p. 50 mg/kg/day)?
The value was 4.9 %/day.

And the tumor growth ([6]; subcutaneous injection 50 mg/kg/day, data not shown)?
The tumor growth was “blocks tumor growth altogether”.

What about the tumor growth ([7]; 10 mg/kg daily s.c.) of the same compound?
The tumor growth was “suppression of tumor growth”.

What about the tumor growth ([7]; 50 mg/kg daily s.c.) of the same compound?
Its tumor growth is “regression of tumors”.

What about the “observation period after cessation of treatment without regrowth of tumors” value ([7]; after 28 days of 50 mg/kg) of the same compound?
The value was 86 days.
